## Binding of CDR-mutated scFvs to a peptide of the spike HR2 region

The measurements come from Engelhart et al. 2022 (doi:10.1038/s41597-022-01779-4) through the FLAb antibody collection.

All variants were tested on one target, the spike HR2 peptide PDVDLGDISGINAS (SARS-CoV-2).

Each scFv is VH, a 15-residue (Gly4Ser)3 linker, VL, as in the parent Ab-14, and differs from it in the CDRs of the heavy chain only.
VH: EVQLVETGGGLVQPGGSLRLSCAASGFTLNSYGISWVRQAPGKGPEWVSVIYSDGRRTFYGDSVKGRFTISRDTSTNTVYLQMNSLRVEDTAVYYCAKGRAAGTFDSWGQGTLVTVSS
VL: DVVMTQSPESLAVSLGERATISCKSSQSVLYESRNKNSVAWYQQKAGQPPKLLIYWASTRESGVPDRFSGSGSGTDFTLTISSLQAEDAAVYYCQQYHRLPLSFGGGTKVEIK

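The parent was found by panning a naive human phage display library on the peptide. The library (AAYL49) carries one to three amino acid substitutions per variant, with no insertions or deletions. The scFvs were displayed on barcoded MATa yeast, the peptide on MATalpha yeast. After mating in shaken culture at 30 °C for 16 h, diploids were selected and their barcode pairs sequenced. A regression on co-assayed BCL2-family reference pairs converts the normalised counts of each replicate to an apparent Kd. Mating was done three times.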

Each variant is given by its three heavy chain CDRs, as the data file delimits them; those of the parent are GFTLNSYGIS, VIYSDGRRTFYGDSVK, GRAAGTFDS.
Numbers give log10(Kd / nM), so 0 is 1 nM and 3 is 1 µM. Smaller is tighter.
Replicates are averaged; those with no signal do not enter the mean.
Where no diploid with the target was found in any replicate, the entry reads "nd": below detection, most likely a poor binder, though not proof of it.
Empty control strains, which show no peptide, gave a signal in 15% of pairings with library AAYL49; the median was 4.06 and 95% of these signals were weaker than 2.83. No background was subtracted.
Parent in this assay: reference entry 0.65, copy in this library 4.11 (one replicate of three).

| CDR-H1 | CDR-H2 | CDR-H3 | mean log10 Kd (nM) | replicates with signal |
|---|---|---|---|---|
| GFTLQSYRIL | VIYSDGRRTFYGDSVK | GRAAGTFDS | nd | 0/3 |
| GFTLNSYGIS | VIYSDCRRTFYYDSVK | GRWAGTFDS | nd | 0/3 |
| GFTLNSYWIS | VIYSDGRRTFQGDIVK | GRAAGTFDS | nd | 0/3 |
| GFTLNSVGIS | VIMSDGRRTFYGDSVK | GVAAGTFDS | nd | 0/3 |
| EFTLNSYGIS | VIYSDGRRTFRGDSVK | GRAAGTFDS | nd | 0/3 |
| GFTLNSYGIS | VIYSVVRRQFYGDSVK | GRAAGTFDS | nd | 0/3 |
| GFTLNSYGIS | VIYSDGRRTFYGDSVK | KRAAWTFFS | 4.57 | 1/3 |
| PFTLNSYGIS | VIYSDGRRTTYGDSVK | GRAAGTPDS | 3.73 | 2/3 |
| GFTLNSYAIS | VIYSDSRRTFYGDSVK | KRAAGTFDS | nd | 0/3 |
| GFTRNSYGQM | VIYSDGRRTFYGDSVK | GRAAGTFDS | 5.06 | 2/3 |
| GFTLNSYGIV | VIYSDGRRTFYGDSVK | YRAAGTFDS | nd | 0/3 |
| GFTANSYGIS | VIYSHGRQTFYGDSVK | GRAAGTFDS | nd | 0/3 |
| GFTLNSYGIS | TIYSDGRRTFYGVSVK | GRAAGTFDS | 3.84 | 1/3 |
| GFTLNSYGIS | VIYSDGRRTFYGDSVK | GRAEGKFDS | 4.45 | 2/3 |
| GFTSNSYGIS | VIYSDGRRTFYGDSYK | GRRAGTFDS | nd | 0/3 |
| GFTLNSYWIS | VIYSDGRRTHYGDSVK | GRAAGTFNS | nd | 0/3 |
| GITLNSYGIS | VIYSDGRRTFYGDSVK | GRAASTFDF | nd | 0/3 |
| GFKLNSYGIS | VIYSDGRRTFSGDPVK | GRAAGTFDS | 4.52 | 1/3 |
| GFTLNSYRIH | VIYSDGRRTFYLDSVK | GRAAGTFDS | nd | 0/3 |
| GFTLNSYGHS | AAYSDGRRTFYGDSVK | GRAAGTFDS | nd | 0/3 |
| GFTLNSYGIS | VIYQDGRRTFYGFSVK | GRWAGTFDS | nd | 0/3 |
| GFTLNIYGLS | VIYSDGRSTFYGDSVK | GRAAGTFDS | nd | 0/3 |
| LFTINSYGIS | VICSDGRRTFYGDSVK | GRAAGTFDS | 5.76 | 1/3 |
| GFTLNSYGIS | VIYGDGRRTFYGDSVK | GRAAGTFDL | 1.55 | 3/3 |
| GFTLNSDGIS | VIYSDQRRTFYGDSVK | GRAAGTWDS | nd | 0/3 |
| GFTRPSYGIT | VIYSDGRRTFYGDSVK | GRAAGTFDS | nd | 0/3 |
| GFTLNSYGIA | VIYSDGRRTFYMDSVK | GRAAGTFDS | nd | 0/3 |
| GFTLFSYGIQ | VIYSDGRRTFYGDSVK | GRAAGTQDS | nd | 0/3 |
| GFTLNSEGIS | VISSDGRRTFYGDSVK | GRAAGCFDS | nd | 0/3 |
| GFTCNSYGIS | VIYSDGRRTFYGDSVK | GRAAGYFSS | 3.18 | 2/3 |
| GFTLNSYKKS | VIYSDGRRTFYGDSVK | CRAAGTFDS | nd | 0/3 |
| GFTLPSYGIS | VIYSDWRRTFYGDSVK | GRAAGGFDS | 4.57 | 1/3 |
| GFTLNDYGIV | VIYSDGRRTFYGDSVK | GRAAGEFDS | 3.66 | 1/3 |
| YFTLNSYGIS | VIYSDSRRTFYGDSVK | GRAASTFDS | nd | 0/3 |
| GGTLNSYGIS | LIYSDGRRTFYGDSVK | GRAAGDFDS | 2.99 | 1/3 |
| GKTLNSYGIS | VEYSDGRRTFYGDSLK | GRAAGTFDS | 3.22 | 1/3 |
| GFTLNSQGIS | VIYSDGRRTFYGDSVK | GRAAGTFDG | nd | 0/3 |
| MFTLNSYGIS | VIYYDGRRTFYGDSVK | GRAAGTFDS | 2.74 | 1/3 |
| GFTLNSNGIS | VIYSDGRRTFYGDSVL | GRAAQTFDS | 2.88 | 1/3 |
| GFTLNDYGIS | VIYEDGRRTFYGDSVK | LRAAGTFDS | nd | 0/3 |
| GFTLNSYGIS | VGYSWGRRLFYGDSVK | GRAAGTFDS | nd | 0/3 |
| AFTLNSYGIS | VIYSDGRRTFYGCSVK | GRAAGCFDS | nd | 0/3 |
| GFTLNSDGIS | VIYSDGRRTFYGDMVK | GRAAETFDS | 3.87 | 1/3 |
| GFTLHSYGIS | VIYSDGTRTFPGDSVK | GRAAGTFDS | 4.45 | 3/3 |
| GFTLNSLGIS | VIYSDGRRTFYGDSVK | GRANGTFDS | nd | 0/3 |
| MFTLNSYGIS | VIYSDGRRTFTGDSVK | GNAAGTFDS | nd | 0/3 |
| GFTLNSYGIS | PIYSDGRRTFYGDSVK | GRAIGTFDA | nd | 0/3 |
| EFTLNSYGIS | VIYSDGRRTFYGDSVK | KDAAGTFDS | 3.51 | 2/3 |
| GFTSNSHGIS | VIYSDGRRYFYGDSVK | GRAAGTFDS | nd | 0/3 |
| GFTLNAYGIS | VIYSDGRRTFYGMSVK | GRAAGTNDS | 1.88 | 1/3 |
| GFHLNSYGIS | VIYSDGRRTFYGDSVK | GRHAGTFCS | 1.22 | 3/3 |
| GFTLNDYHIS | VIYYDGRRTFYGDSVK | GRAAGTFDS | nd | 0/3 |
| NFTLNSYGCS | VIYPDGRRTFYGDSVK | GRAAGTFDS | nd | 0/3 |
| GFTLNSYGIS | VIYSDGRRTFYGDSVI | CRAANTFDS | 4.95 | 1/3 |
| GFTLNSYGIS | VIYSWGRRTFYGDSVK | GWKAGTFDS | nd | 0/3 |
| GFTLNPYGIS | VIYSDGRRTFYFDEVK | GRAAGTFDS | 4.34 | 1/3 |
| GFTRNSYGTS | VIYSDGRRTPYGDSVK | GRAAGTFDS | 4.24 | 3/3 |
| GFTLNNYGIS | VIYSDGRRTFYGNSVK | GWAAGTFDS | 1.09 | 3/3 |
| GFTLNSYGIS | VIYSDGRETFYGDIVK | GRAAGFFDS | nd | 0/3 |
| GFTSNSYGIS | VIYSDGERTFYGDSVK | ARAAGTFDS | nd | 0/3 |
| GFTLNSYGIS | VIYSDGRRTFRGDKVK | GRAACTFDS | nd | 0/3 |
| GWTLNKYGIS | VIYSNGRRTFYGDSVK | GRAAGTFDS | nd | 0/3 |
| GKYLNSEGIS | VIYSDGRRTFYGDSVK | GRAAGTFDS | 2.84 | 1/3 |
| GFTLNSYGIS | QIDSDGRRTFYGDKVK | GRAAGTFDS | 3.78 | 1/3 |
| GFQLNSYYIS | VIYSDGRRTFYGDSVK | GRAAGTFDS | 3.62 | 1/3 |
| GFTLNSYGIS | VIYSKGRRTFYYDSVK | HRAAGTFDS | 3.91 | 1/3 |
| GVTLNSYMIE | VIYSDGRRTFYGDSVK | GRAAGTFDS | 4.96 | 1/3 |
| GFTLNSYGIS | VIYSDGRNTFYGDSIK | GRAAGEFDS | nd | 0/3 |
| GFTLNSYGIS | VGYSDGRRTFYGDSVK | GRAVFTFDS | 4.21 | 1/3 |
| GFYLNCYGIS | VIYSDGRRTFYGDSVK | GRAAGTFYS | 1.37 | 3/3 |
| GFTLHSYGIS | VIYSDGRRTFYGDWVK | GRAAYTFDS | nd | 0/3 |
| GFTLNSYGIS | AIYSDGRRHFYGDSVK | GRAAGTFNS | nd | 0/3 |
| FFTLNDYGIS | VIYSDGMRTFYGDSVK | GRAAGTFDS | 2.07 | 3/3 |
| GFTLNSYGIS | DMYSDGRRTFYGDSVK | GQAAGTFDS | nd | 0/3 |
| GFTLNSYVGS | VIYSDGRRTFYGDSAK | GRAAGTFDS | 3.62 | 1/3 |
| GFTLNSDGIS | VIYSDGYRTLYGDSVK | GRAAGTFDS | nd | 0/3 |

Top 6 of the variants detected in all replicates, tightest first:

| CDR-H1 | CDR-H2 | CDR-H3 | mean log10 Kd (nM) | replicates with signal |
|---|---|---|---|---|
| GFTLNNYGIS | VIYSDGRRTFYGNSVK | GWAAGTFDS | 1.09 | 3/3 |
| GFHLNSYGIS | VIYSDGRRTFYGDSVK | GRHAGTFCS | 1.22 | 3/3 |
| GFYLNCYGIS | VIYSDGRRTFYGDSVK | GRAAGTFYS | 1.37 | 3/3 |
| GFTLNSYGIS | VIYGDGRRTFYGDSVK | GRAAGTFDL | 1.55 | 3/3 |
| FFTLNDYGIS | VIYSDGMRTFYGDSVK | GRAAGTFDS | 2.07 | 3/3 |
| GFTRNSYGTS | VIYSDGRRTPYGDSVK | GRAAGTFDS | 4.24 | 3/3 |